Laboratory results from patent publication US20220304309A1, “IRON COMPLEXES AND USES THEREFOR” (priority 2019, published 2022).

Assay: Total, ferrous and ferric iron content of the complexes immediately after preparation (1,10-phenanthroline)
Conditions: 50 mM solution

Row | Compound | Oxidation state of the iron immediately after preparation
1 | ferrous di-pyruvate | essentially all the iron was in the ferrous oxidation state
2 | O=C([O-])CC(O)(CC(=O)[O-])C(=O)[O-].O=C([O-])CC(O)(CC(=O)[O-])C(=O)[O-].[Fe+2].[Fe+2].[Fe+2] [tri-ferrous di-citrate] | essentially all the iron was in the ferrous oxidation state
